# Ab-95 light chain CDR variants: yeast mating affinities

Values reported by Engelhart et al. 2022, doi:10.1038/s41597-022-01779-4 (FLAb copy).

Antigen: PDVDLGDISGINAS, a 14-residue peptide of the SARS-CoV-2 spike HR2 region.

Each scFv is VH, the linker GGGGSGGGGSGGGGS, VL, as in the parent Ab-95, and differs from it in the CDRs of the light chain only.
VH: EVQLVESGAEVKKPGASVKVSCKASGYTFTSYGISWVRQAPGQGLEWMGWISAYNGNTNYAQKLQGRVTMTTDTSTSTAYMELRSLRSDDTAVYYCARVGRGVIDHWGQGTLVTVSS
VL: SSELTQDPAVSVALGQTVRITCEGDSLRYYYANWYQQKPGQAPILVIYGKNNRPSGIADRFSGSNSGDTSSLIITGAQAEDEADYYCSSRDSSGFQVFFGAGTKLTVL

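The starting antibody came from a phage panning campaign against this peptide. In library AAYL52, one, two or three CDR residues were substituted; doubles and triples were drawn at random. The assay is AlphaSeq: two haploid yeast populations carry antibody and antigen on their surface. Binding brings cells together so that they mate, and sequencing counts the barcode pairs among the diploids. Read counts were normalised to the haploid input and turned into Kd by a linear fit to BCL2-family pairs of known affinity, for each replicate. Mating was done three times.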

Substitutions are numbered in sequence along the VL above, starting at 1 (not Kabat).
Numbers give log10(Kd / nM), so 0 is 1 nM and 3 is 1 µM. Smaller is tighter.
A mean of the replicates is given; it leaves out those without a signal.
Where no diploid with the target was found in any replicate, the entry reads "nd": below detection, most likely a poor binder, though not proof of it.
As a blank, each scFv also met three strains without target: over library AAYL52, 28% of these pairings were detected, typically at 3.91 and seldom below 2.90.

changes	mean log10 Kd (nM)	replicates with signal
K50Y/S93T/G94Q	3.03	3/3
G24Q/N33V/Q96C	3.53	1/3
S26G/N33C	3.82	1/3
D25G/L27E/S92V	3.89	2/3
D25N/D91P/V97P	2.44	3/3
L27S/G49W/S93V	3.64	2/3
G24A/D25R/R28G	2.68	3/3
G49C/K50W/S89A	3.87	1/3
S26D/N52A/S88D	3.43	3/3
N52M/G94H	2.89	3/3
K50A/P54D/D91A	2.32	1/3
R28W/N51G/S55T	4.34	1/3
N51V/N52E/F98Q	3.66	3/3
R28T/Y29E	2.74	2/3
G24K/D91P/G94P	3.20	3/3
Y31A/S93L	2.43	3/3
D91W/S93A/V97S	2.01	3/3
Y29S/Y30L/R53D	5.71	1/3
G24W/R28G/F98Y	3.14	3/3
S89W/S93L/G94P	3.67	2/3
A32R/K50H/F95W	3.46	3/3
D25T/L27H/P54R	4.16	2/3
D91T/S93N/F95P	4.51	1/3
S26I/A32S/N52S	3.68	1/3
D25K/R28V/Y29A	2.83	3/3
R28V/S88G	1.79	3/3
E23G/G49Y/S88W	4.97	2/3
G24C/S88E/S93I	4.36	2/3
E23L/S92G	2.69	3/3
N51A/N52F/P54Q	3.72	3/3
G24Y/R28P/R90M	3.58	2/3
G24N/S26M/Y31H	3.76	2/3
A32S/N52G/S88V	3.97	2/3
Y30C/Y31D/G49T	3.16	3/3

Further variants, results first:

mean log10 Kd (nM)	replicates with signal	changes
4.77	1/3	N33L/R90I/D91Q
3.32	3/3	S26L/D91F/G94P
2.08	3/3	S55K/G94I/V97W
3.33	1/3	R28W/N51M/R53C
4.13	2/3	S26C/Q96V/F98D
3.40	2/3	S93G/Q96V
2.95	2/3	E23C/R28A/S88N
2.41	3/3	P54D/G94D/Q96E
1.38	3/3	E23Q/L27C/Q96H
1.78	3/3	Y29Q/K50L/S92A
3.51	3/3	A32P/R53Q/R90F
4.55	1/3	A32I/N52H/S89D
3.99	2/3	A32N/S88T/R90S
3.59	2/3	E23P/S55G/F95G
2.64	3/3	E23Y/S92W/S93H
2.09	3/3	N33D/S92N/Q96C
nd	0/3	E23H/A32Q/N33S
2.96	1/3	L27D/Y29D/V97F
3.68	3/3	Q96E/F98C
4.10	2/3	L27P/A32L/S93L
4.80	2/3	G24V/Y30L
3.11	3/3	D25S/P54H/S55R
3.22	3/3	Y30T/S92V/S93V
4.03	3/3	K50C/S55N/F98H
2.90	3/3	D25K/S88D/V97I
3.76	1/3	L27T/K50V/R90D
4.42	2/3	Y31K/G49F/V97H
3.42	3/3	N33S/S92Q/F98I
3.72	1/3	A32W/N52D/S89R
1.26	3/3	Y30K/S55V/Q96A
3.89	3/3	A32W/F95L/Q96R
3.32	3/3	D25K/D91E/S93K
4.35	2/3	K50L/R53F
2.64	3/3	Y30N/N52L/S93C
5.07	1/3	R53G/S55V/F98M

In this assay the parent's reference entry averaged 2.31; its copy inside this library read 2.25.